High-throughput results (PubChem)
SIRT5 block = sirtuin-5 (human) deacylase inhibition; Purified SirT5, succinyl-peptide AMC, trypsin-coupled fluorescence; inhibition, % at 15 µM; 330,000 compounds, 1.1% hits; in the data active = inhibition above about 15%
ERp5 block = inhibitors of human ERp5 | Q15084 | ERp5 insulin aggregation, absorbance 650 nm, 90 min | inhibition, % at 9.99 µM | 350,000 compounds, 0.05% hits | AID 651711;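 active = mean replicate inhibition above about 25%, with every replicate also reaching it, limit read from the data, passing the limit was not always enough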
FGF22 binding = binders of recombinant human FGF22 by thermal shift; AID 651658; 340,000 compounds, 1.5% hits; SYPRO orange fluorescence; percent of sucrose octasulfate shift, DMSO zero; activity (Tm shift, normalised), % at 9.99 µM;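 active = mean Tm shift, scaled 0 neutral to 100 positive control, at about 1.3% or above, every replicate too, limit read from the data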
PDI turbidity = PDI (human) enzyme inhibition | P07237 | PDI insulin aggregation turbidity, A650, 90 min | inhibition, % at 10 µM | 350,000 compounds, 0.052% hits | AID 588391;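 active = mean inhibition across replicates of 30% or more, whatever share of single replicates reach that level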
S100A4 inh HTS = inhibitors of human S100A4 binding to myosin IIA peptide; P26447; S100A4/TAMRA-MyoIIA peptide fluorescence polarization; inhibition, % at 10.7 µM; 360,000 compounds, 0.14% hits; AID 652163;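 active = mean inhibition of at least 70% across replicates, with every replicate also reaching that level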
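Test system: S100A4 monomer protein; Medium: HEPES pH 7.2 with CaCl2, KCl, NaCl, DTT, Triton; Probe or stimulus: TAMRA-labelled myosin IIA heavy-chain peptide probe, 5 nM; Doses: one dose per compound; Times: polarization read 5 min after assay mix addition, stable 5–60 min; Benchmarks: neutral control DMSO, positive control TFP.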
UUG fidelity = modulators of start codon recognition fidelity in yeast. S. cerevisiae UUG-firefly luciferase reporter, luminescence/redox ratio. activity score, % at 18.7 µM. 0.13% of 350,000 active. AID 602363;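 active = replicate mean at a twofold rise or more, about +100% in these data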;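 also: firefly luciferase made from a UUG start codon reports start codon fidelity; reporter light over untreated wells divided by growth signal over untreated wells; some hits fall short of that in this replicate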
Each line names hits and unclear results; the compound was inactive in the other large screens. Most compounds without a hit are left out; they make up all but 2.2% or so of the library.

Cc1cc(CNC(=O)CC2C(=O)NCCN2Cc2ccccc2C(F)(F)F)on1 (stereo unspecified)	SIRT5 block 29 (no result: UUG fidelity)
CN(Cc1nccn1C)C(=O)CC1C(=O)NCCN1Cc1ccccc1C(F)(F)F (stereo unspecified)	SIRT5 block 17
C[C@H](CO)N1C[C@H](C)[C@H](CN(C)Cc2ccccc2F)Oc2cc(C3=CCCCC3)ccc2S1(=O)=O	none (no result: PDI turbidity)
CC(C)NC(=O)Nc1ccc2c(c1)C(=O)N([C@@H](C)CO)C[C@@H](C)[C@@H](CN(C)C(=O)c1ccncc1)OCCCC[C@H](C)O2	none (no result: PDI turbidity, UUG fidelity)
N#C[C@H]1[C@H](c2ccccc2)[C@H](CO)N1S(=O)(=O)c1ccc(-c2ccccc2)cc1	none (no result: PDI turbidity)
CCc1cc(CNC(=O)CC2C(=O)NCCN2Cc2c(F)cccc2Cl)on1 (stereo unspecified)	none
COc1ccccc1CN1CCNC(=O)C1CC(=O)NCCCN1CCOCC1 (stereo unspecified)	S100A4 inh HTS 131
CCc1cc(CNC(=O)CC2C(=O)NCCN2Cc2cccc(OC)c2)on1 (stereo unspecified)	FGF22 binding 44 (no result: UUG fidelity)
COc1ccc(-c2ccc3c(c2)[C@@H]2[C@@H](CCN2C(=O)C2CCOCC2)[C@@H](CO)N3C)cc1	none (no result: SIRT5 block, ERp5 block, PDI turbidity, S100A4 inh HTS)
CCOc1ccccc1OCC(=O)NNC(=O)Cn1cnc2c1c(=O)n(C)c(=O)n2C	FGF22 binding 44
CCOC(=O)Cc1nnc(NC(=O)CCc2ccccc2)s1	SIRT5 block 17 (no result: UUG fidelity)
CCOC(=O)Cc1csc(NC(=O)CCSc2ccccc2)n1	FGF22 binding 2.5
CCOC(=O)Cc1csc(NC(=O)CCc2ccccc2)n1	none
CCOC(=O)Cc1csc(NC(=O)Cn2cnc3c2c(=O)n(C)c(=O)n3C)n1	SIRT5 block 25 (no result: UUG fidelity)
COc1cccc(NC(=O)C[C@H]2CC[C@H]3[C@H](COc4ccc(NC(=O)C5CCOCC5)cc4C(=O)N3C)O2)c1	none (no result: PDI turbidity, UUG fidelity)
C[C@H]1CN([C@@H](C)CO)C(=O)c2cc(C#CC3CCCC3)cnc2O[C@H]1CN(C)C(=O)Nc1ccccc1	none (no result: PDI turbidity)
Cc1ccccc1S(=O)(=O)N1CC[C@@H]2[C@H]1c1cc(Br)ccc1N(C)[C@H]2CO	none (no result: SIRT5 block, ERp5 block, PDI turbidity, S100A4 inh HTS)
O=c1cc(-c2ccccc2Cl)oc2c(NS(=O)(=O)c3cc(Cl)cc(Cl)c3O)ccc(O)c12	none (no result: SIRT5 block, ERp5 block, FGF22 binding, S100A4 inh HTS)
CCc1ccc(S(=O)(=O)Nc2ccc(O)c3c(=O)cc(-c4ccccc4Cl)oc23)cc1	FGF22 binding 19 (no result: SIRT5 block)
CC(C)NC(=O)N(C)C[C@@H]1Oc2c(NS(=O)(=O)c3ccc(Cl)cc3)cccc2C(=O)N([C@@H](C)CO)C[C@@H]1C	none (no result: PDI turbidity)
C=C(C)Cn1c(N2CCN(c3ccc(OC)cc3)CC2)nc2c1c(=O)n(C)c(=O)n2C	SIRT5 block 29 (no result: UUG fidelity)
CCOc1ccc(NC(=O)CN(C)C(=O)c2cc([N+](=O)[O-])ccc2Sc2ccccc2)cc1OCC	FGF22 binding 19
COc1cc2oc(=O)cc(-c3ccc(-c4ccc(C)cc4)cc3)c2c(OC)c1OC	none
COc1cc2oc(=O)cc(C)c2c(OC)c1OC	FGF22 binding 43 (no result: UUG fidelity)
CC1N=C(SCC(=O)c2ccc(F)cc2)N2C(C)N=C(SCC(=O)c3ccc(F)cc3)N12 (stereo unspecified)	FGF22 binding 43 (no result: SIRT5 block)
Cn1ccnc1SCC(=O)c1ccc(F)cc1	none
C[C@@H]1CN([C@@H](C)CO)C(=O)c2cc(NC(=O)C3CC3)ccc2O[C@H]1CN(C)Cc1ccc(C(=O)O)cc1	none (no result: PDI turbidity, UUG fidelity)
O=C(OCCc1cc2ccccc2c(=O)o1)c1ccc(F)cc1	SIRT5 block 33
O=C(OCCc1cc2ccccc2c(=O)o1)c1ccc(C(F)(F)F)cc1	none (no result: SIRT5 block)
CCS(=O)(=O)N1CC2(CN[C@@H](CO)c3c2c2ccc(OC)cc2n3C)C1	none (no result: SIRT5 block, ERp5 block, PDI turbidity, S100A4 inh HTS, UUG fidelity)
O=C(Nc1ccccc1NC(=O)c1csnn1)c1csnn1	FGF22 binding 43 (no result: UUG fidelity)
CO[C@@H]1CN(C)C(=O)c2ccc(NC(=O)Cc3ccccc3)cc2OC[C@H](C)N(C(C)=O)C[C@H]1C	none (no result: PDI turbidity)
CN(C)c1ccc(/C=C/C(=O)c2ccc(O)cc2)cc1	none (no result: UUG fidelity)
O=C(/C=C/c1cccnc1)c1cccc(O)c1	PDI turbidity 44
COc1ccc(C=CC(=O)c2ccc([N+](=O)[O-])cc2)cc1	none
COc1ccc(C(=O)/C=C/c2ccc(O)cc2)cc1	FGF22 binding 2.7 (no result: SIRT5 block, PDI turbidity)
O=C(/C=C/c1ccc(O)cc1)c1ccccc1	FGF22 binding 1.3 (no result: UUG fidelity)
